# Yeast mating assay 1: variants of the scFv Ab-14

Binding partner: SARS-CoV-2 spike HR2 peptide, sequence PDVDLGDISGINAS.

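The parent was found by panning a naive human phage display library on the peptide. AAYL49 was designed without a model: most single CDR substitutions and a random sample of double and triple ones. Affinity was read by AlphaSeq, a pooled yeast mating assay with surface-displayed partners. Mating (16 h, 30 °C) was followed by selection of diploids and sequencing of their barcodes. The ratio of observed to expected reads was calibrated, replicate by replicate, on BCL2-family standards whose Kd was known from biolayer interferometry. The assay was run in three technical replicates.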

Each scFv is VH, a 15-residue (Gly4Ser)3 linker, VL, as in the parent Ab-14, and differs from it in the CDRs of the heavy chain only.
VH: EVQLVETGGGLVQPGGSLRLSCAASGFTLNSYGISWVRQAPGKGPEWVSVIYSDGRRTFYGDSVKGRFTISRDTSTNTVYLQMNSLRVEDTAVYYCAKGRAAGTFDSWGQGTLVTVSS
VL: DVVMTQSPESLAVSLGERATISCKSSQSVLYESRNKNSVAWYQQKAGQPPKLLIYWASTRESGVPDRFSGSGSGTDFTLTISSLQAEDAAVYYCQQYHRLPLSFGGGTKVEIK

Changes read parent residue, position, new residue, counted from the first residue of the VH shown.
Scale: log10 of Kd in nM, estimated from mating counts; low values are strong binders.
"nd" means that the variant was in the library but no mating with the target was seen in that replicate; the authors take this as a sign of poor binding, and no number exists.

The variant V50P G103Y showed nd, nd, nd (controls 3 of 9).
The variant L29I T58M S63K showed 1.30, 1.48, 1.86 (controls 0 of 9).
The variant S31M R56E F59S showed 0.39, 0.61, 0.52 (controls 0 of 9).
The variant Y52I Y60M S107A showed nd, nd, nd (controls 1 of 9).
The variant Y52K T104R D106L showed nd, nd, 5.01 (controls 3 of 9).
The variant R100A A101P showed 1.08, 1.24, 1.30 (controls 3 of 9).
The variant L29Q G55W R56L showed nd, nd, nd (controls 2 of 9).
The variant I51H R56Y G61I showed nd, nd, 4.81 (controls 0 of 9).
The variant G26N Y60S showed 5.81, 3.97, 5.44 (controls 4 of 9).
The variant G26L F27H I34F showed 3.90, 3.78, 3.56 (controls 3 of 9).
The variant S31W D62A S63F showed nd, nd, nd (controls 0 of 9).
The variant T28S G99I D106S showed nd, nd, nd (controls 0 of 9).
The variant I51F A101M F105I showed nd, nd, nd (controls 0 of 9).
The variant F27L F59I V64K showed nd, nd, nd (controls 0 of 9).
The variant F27S I34P T58F showed nd, 2.83, nd (controls 0 of 9).
The variant G26Q L29W S63N showed nd, 3.42, nd (controls 0 of 9).
The variant N30H I34L F59D showed nd, 4.07, 3.27 (controls 4 of 9).
The variant F27M V50A D62L showed 2.99, 4.25, nd (controls 0 of 9).
The variant F27W G33K T58D showed 5.16, 4.31, 4.73 (controls 8 of 9).
The variant T58Q showed 1.04, 1.39, 1.39 (controls 2 of 9).
The variant G26I G33C K65G showed nd, nd, nd (controls 1 of 9).
The variant G33W V64R G103D showed nd, nd, nd (controls 0 of 9).
The variant G33K D106W S107C showed nd, nd, nd (controls 1 of 9).
The variant S53R G61L K65P showed 5.74, 4.08, nd (controls 2 of 9).
The variant F27G I51N A102H showed nd, nd, nd (controls 0 of 9).
The variant F27D I34A R100W showed nd, nd, nd (controls 3 of 9).
The variant S31R D54V R100M showed nd, nd, nd (controls 0 of 9).
The variant T58Y V64N K65A showed 4.33, 3.81, 6.23 (controls 3 of 9).
The variant G26L A101H D106N showed 2.11, 2.38, 2.88 (controls 2 of 9).
The variant F27P R57V showed 6.28, nd, nd (controls 3 of 9).
The variant G33Q D62Q G103Y showed nd, nd, nd (controls 0 of 9).

The last 2 entries again:

changes	log10 Kd (nM) by replicate	control signals
F27P R57V	6.28, nd, nd	3/9
G33Q D62Q G103Y	nd, nd, nd	0/9

Three control strains display no target. For library AAYL49, 15% of the pairings with them gave a signal, with a median of 4.06 and one signal in twenty below 2.83, so weak values seen in few replicates may be background. For each scFv, signals with the empty controls are counted beside the result.

Data: MIT Lincoln Laboratory AlphaSeq set, Engelhart et al. 2022, doi:10.1038/s41597-022-01779-4, as distributed in FLAb.